Amino acid sequences for entries named in this document (tags omitted). Residues count along the entry.
UniProt P02769, 25-607: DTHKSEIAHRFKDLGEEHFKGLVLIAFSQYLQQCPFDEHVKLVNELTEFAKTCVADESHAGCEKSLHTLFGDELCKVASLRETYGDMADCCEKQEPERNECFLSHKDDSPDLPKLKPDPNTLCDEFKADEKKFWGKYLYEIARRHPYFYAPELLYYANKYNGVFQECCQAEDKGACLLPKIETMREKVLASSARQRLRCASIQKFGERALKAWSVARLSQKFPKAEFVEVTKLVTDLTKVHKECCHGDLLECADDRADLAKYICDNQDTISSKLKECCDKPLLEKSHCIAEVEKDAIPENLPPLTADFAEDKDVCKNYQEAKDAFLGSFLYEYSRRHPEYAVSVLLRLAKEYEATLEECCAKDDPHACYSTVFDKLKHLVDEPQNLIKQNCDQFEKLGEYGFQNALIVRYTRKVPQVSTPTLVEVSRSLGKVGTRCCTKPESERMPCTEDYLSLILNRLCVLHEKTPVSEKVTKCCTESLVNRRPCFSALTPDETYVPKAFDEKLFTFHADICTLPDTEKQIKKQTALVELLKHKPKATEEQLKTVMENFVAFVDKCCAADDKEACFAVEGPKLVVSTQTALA

In patent US6727285B1, “Use of D-arginine and/or L-arginine to protect the amino groups of biological substances from damage, inactivation, or modification by toxic carbonyls and/or dicarbonyls” (priority 1995, dated 2004):

Assays:
Assay type in all cases: biochemical
[1] = system: bovine serum albumin; experiment: Blocking of methylglyoxal or glyoxal cross-linking (gel formation) of albumin, inventor's tests; settings: arginines: hydrochloride salts and free base forms
[2] = target: T1, bovine serum albumin (Bos taurus, UniProt P02769); settings: 98.6° F.
T1 construct: HEPES salt, HEPES acid, and bovine serum albumin was obtained from Sigma; purchased Sigma
Procedure: As described in TABLE #4, 2 cc of 30% bovine serum albumin (BSA) was added by glass pipette (Kimax 1/100) to each of three glass 7 ml. test tubes numbered 1, 2, and 3. 0.4 ml. of 6 molar HEPES buffer was added to tube #1 by glass pipette. 0.5 ml. of 6 molar HEPES buffer was added to test tube #2. 0.3 ml. of 6 molar HEPES buffer was added to tube #3.

[3] = target: T1, bovine serum albumin; settings: pH 8 to 11; buffered and unbuffered systems
Procedure: The magnetic stirrer was set to 217 rpm. The pH was checked at five minutes.
The pH was constantly monitored as were the color and fluid characteristics of the mixture. […] The end-point was recorded when a visible non-flowing gel formed in the tube and could not be caused to flow when the tube was inverted at 40 degrees below the horizontal for two minutes.

[4] = sample 2: 2 ml 30% BSA + 0.5 cc 6 m HEPES (pH 7.35), 0.10 ml of 40% methylglyoxal (0.55 millimole) buffered to pH 7.44, no protectant

SMILES | blocking of the cross-linking of albumin by methylglyoxal or glyoxal [1] | FINAL FORM ([2]; sample 1: 2 ml 30% BSA + 0.4 cc 6 m HEPES (pH 7.40), 1 millimole methylglyoxal (0.18 ml of 40%, pH not adjusted), no protectant, 217 RPM) | FINAL FORM [2, 4] | time until yellow brown gelatin formed [2, 4] | binding of bovine serum albumin [3]
CN(CC(=O)O)C(=N)N [creatine] | do not block | – | – | – | –
N[C@@H](CS)C(=O)O [cysteine] | do not block | – | – | – | –
CC(=O)C=O [methylglyoxal] | – | FIRM GEL | GEL | pH 7.22 at 5 minutes; 2 hours | does not bind bovine serum albumin well

Where two headings read alike, the source gives them in different places.
